Source: ChEMBL document CHEMBL1133502, “Thio- and oxoflavopiridols, cyclin-dependent kinase 1-selective inhibitors: synthesis and biological effects” (J Med Chem, 2000)

By UniProt entry, the sequences of proteins in these tests, tags left out. Where a name states a change or a piece, a line headed by the entry shows the natural chain unless it says otherwise.
UniProt P11802: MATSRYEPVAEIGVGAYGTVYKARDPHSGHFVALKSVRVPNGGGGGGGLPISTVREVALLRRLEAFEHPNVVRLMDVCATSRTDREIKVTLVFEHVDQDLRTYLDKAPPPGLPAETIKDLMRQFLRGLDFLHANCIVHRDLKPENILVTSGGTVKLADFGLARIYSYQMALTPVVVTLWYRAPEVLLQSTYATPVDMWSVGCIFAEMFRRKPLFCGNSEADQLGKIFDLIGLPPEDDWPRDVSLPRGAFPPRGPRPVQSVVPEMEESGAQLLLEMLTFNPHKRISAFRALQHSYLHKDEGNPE

Biological target: Cyclin-dependent kinase 4/cyclin D1 (Homo sapiens, UniProt P11802)
Test: Inhibition of Cyclin-dependent kinase 4-cyclin D1
Format: protein-complex assay

Compound: Cn1cnc2c(NCc3ccccc3)nc(NCCO)nc21 [OLOMOUCINE]
- IC50: 1000 µM
